The entries are a selection whose mix differs from that of the whole data set. The source made the active and inactive calls. Cut-off read from the data, not from the text of the source: active = activity change below about -50%; inconclusive = mostly about -30% to -49%; inactive = weaker than that.
molecular target: Phosphatidylinositol 4-kinase type 2-alpha (Homo sapiens) (UniProt Q9BTU6); experiment: qHTS for small molecular inhibitors of PI4K2A; settings: purified PI4K2A, ADP-Glo luminescence, 1 h; at 76.9 µM, active compounds read low;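 for activity change, negative = inhibition: -100% = wells without enzyme as full effect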
Source text: The phosphatidylinositol 4-phosphate (PI4P) is emerging as a key regulator of lipid transfer in ER-membrane contact sites. The four different phosphatidylinositol 4-kinase (PI4K) enzymes generate PI4P in different membrane compartments supporting distinct cellular processes many of which are crucial for the maintenance of cellular integrity but also hijacked by intracellular pathogens. The goal of this screening project is to search for small molecular inhibitors of PI4K2A based on a high throughput screening strategy.The ADP-Glo assay was used as a starting point to develop a miniaturized version for HTS applications. To implement the HTS screen, the PI4K ADP-Glotrade mark Kinase assay (Promega, V9102) was miniaturized for the 1536-well format used at NCGC.
For the robotic screening, the ADP-Glo assay using the ADP-Glotrade mark Kinase Assay kit from Promega was miniaturized and optimized on 1536-well white solid bottom plates (Greiner Bio-one). The substrate, 1.2 mM PI, prepared in the assay buffer (40mM Tris pH7.5, 20mM MgCl2, 1mM EGTA, 0.4% Triton X-100, 0.5mM DTT, 0.5mg/ml BSA) and PI4K2A enzyme, diluted also in the assay buffer to 4ug/mL, were dispensed onto the plates in equal volumes (1microl/well), pinned with 23 nL/well tested compounds or control followed by dispensation of 1microl/well 300microM ATP. The plates were incubated for one hour. Then, 2 µL/well of ADP-Glo reagent was added and incubated for 40 minutes. Next, 4microL/well of Kinase Detection Buffer was added to the plates and incubated for additional 40 minutes. All incubation steps were performed at ambient temperature. The resulting luminescence signal was measured on Viewlux plate reader (PerkinElmer). Adenosine, a partial non-specific inhibitor, was used as a positive control at 100microM final concentration to assess the assay's quality and plate-to-plate reproducibility. We also used "no enzyme" control to gauge the assay's maximal potential inhibition (IC100).

The chains behind the UniProt entries cited, without tags or fusion partners.
UniProt Q9BTU6, whole entry: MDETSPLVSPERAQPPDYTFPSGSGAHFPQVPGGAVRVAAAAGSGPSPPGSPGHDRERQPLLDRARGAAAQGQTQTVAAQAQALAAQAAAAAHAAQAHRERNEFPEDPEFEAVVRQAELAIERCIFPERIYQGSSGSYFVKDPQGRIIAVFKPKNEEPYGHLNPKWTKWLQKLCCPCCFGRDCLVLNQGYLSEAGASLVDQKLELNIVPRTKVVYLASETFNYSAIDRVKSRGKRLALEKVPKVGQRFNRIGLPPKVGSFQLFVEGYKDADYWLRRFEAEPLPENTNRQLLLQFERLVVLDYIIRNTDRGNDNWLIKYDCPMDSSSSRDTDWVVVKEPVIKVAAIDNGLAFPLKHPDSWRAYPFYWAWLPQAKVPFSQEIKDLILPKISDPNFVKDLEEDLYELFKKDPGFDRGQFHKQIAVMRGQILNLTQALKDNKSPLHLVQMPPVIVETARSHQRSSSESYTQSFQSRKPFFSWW

**Q.** How did the activity change, negative = inhibition turn out when `CP(=S)(Nn1cnnc1)Oc1ccccc1` (stereo unspecified) was run?
**A.** inactive: -1.21%

**Q.** With `COc1ccccc1OP(C)(=O)Nc1ccccc1` (stereo unspecified) as the compound, how does the activity change, negative = inhibition read?
**A.** inactive: 3.2%

**Q.** Which activity change, negative = inhibition does the source give for `CP(=O)(Nc1ccccc1Br)Oc1ccccc1` (stereo unspecified) here?
**A.** inactive: -1.17%

**Q.** Which activity change, negative = inhibition does the source give for `CP(=O)(Oc1ccccc1)OC(c1ccccc1)C(F)(F)F` (stereo unspecified) here?
**A.** inactive: -6.35%

**Q.** Which activity change, negative = inhibition does the source give for `CP(=O)(Nc1ccc(SC(F)(F)F)cc1)Oc1ccc(Cl)cc1` (stereo unspecified) here?
**A.** inactive: -0.16%

**Q.** `Cc1cccc(C)c1OP(C)(=O)Nc1ccc(SC(F)(F)F)cc1` (stereo unspecified) was tested. Which activity change, negative = inhibition did it give?
**A.** inactive: -7.25%

**Q.** Which activity change, negative = inhibition does the source give for `Cc1cc(C)cc(OP(C)(=O)Nc2ccc(SC(F)(F)F)cc2)c1` (stereo unspecified) here?
**A.** inactive: 2.45%

**Q.** How did the activity change, negative = inhibition turn out when `CCc1ccc(OP(C)(=O)N2CCN(c3ccc([N+](=O)[O-])cc3)CC2)cc1` (stereo unspecified) was run?
**A.** inactive: -4.52%

**Q.** With `CP(=O)(NC(=O)Nc1ccccc1)Oc1ccccc1` (stereo unspecified) as the compound, how does the activity change, negative = inhibition read?
**A.** inactive: -3.81%

**Q.** `CCOP(C)(=S)SCC(=O)NC(C)C(=O)O` (stereo unspecified) was tested. Which activity change, negative = inhibition did it give?
**A.** inactive: 4.03%

**Q.** `O=[N+]([O-])c1cc([N+](=O)[O-])c(O)c([N+](=O)[O-])c1.c1ccc(Oc2ccncc2)cc1` was tested. Which activity change, negative = inhibition did it give?
**A.** inactive: 1.3%

**Q.** How did the activity change, negative = inhibition turn out when `CCOC(=O)c1ccc(NP(C)(=O)Oc2ccc(OC)cc2)cc1` (stereo unspecified) was run?
**A.** inactive: 0.715%

**Q.** Which activity change, negative = inhibition does the source give for `CP(=O)(Nc1ccccn1)Oc1ccc(Cl)cc1` (stereo unspecified) here?
**A.** inactive: 1.63%

**Q.** For `CCN(CC)CCCOC(=O)C(O)(c1ccccc1)c1ccccc1`, which activity change, negative = inhibition is on record?
**A.** inactive: -1.2%

**Q.** With `COc1ccccc1-c1ccccn1.O=[N+]([O-])c1cc([N+](=O)[O-])c(O)c([N+](=O)[O-])c1` as the compound, how does the activity change, negative = inhibition read?
**A.** inactive: 8.52%

**Q.** For `O=[N+]([O-])c1cc([N+](=O)[O-])c(Nc2cccnc2)c([N+](=O)[O-])c1`, which activity change, negative = inhibition is on record?
**A.** inactive: -2.81%

**Q.** For `Cc1cccc(C)c1OP(C)(N)=O` (stereo unspecified), which activity change, negative = inhibition is on record?
**A.** inactive: 4.5%

**Q.** Which activity change, negative = inhibition does the source give for `CC(C)(C)c1ccc(OP(C)(=O)Nc2ccc(SC(F)(F)F)cc2)cc1` (stereo unspecified) here?
**A.** inactive: -1.74%

**Q.** For `O=[N+]([O-])c1ccc2c(c1)C=Nc1ccccc1O2`, which activity change, negative = inhibition is on record?
**A.** inactive: 0.904%

**Q.** With `CCOC(=O)c1ccc(NP(C)(=O)Oc2ccccc2)cc1` (stereo unspecified) as the compound, how does the activity change, negative = inhibition read?
**A.** inactive: 3.48%

**Q.** With `Cc1ccc(NP(C)(=O)Oc2ccccc2)c(C)c1` (stereo unspecified) as the compound, how does the activity change, negative = inhibition read?
**A.** inactive: -1.58%

**Q.** Which activity change, negative = inhibition does the source give for `COc1ccccc1OP(C)(=O)Nc1ccc(C)cc1` (stereo unspecified) here?
**A.** inactive: -2.97%

**Q.** How did the activity change, negative = inhibition turn out when `COc1ccc(OP(C)(=O)Nc2cccc(F)c2)cc1` (stereo unspecified) was run?
**A.** inactive: 0.495%

**Q.** `COc1ccccc1OP(C)(=O)Nc1cc(Cl)ccc1C` (stereo unspecified) was tested. Which activity change, negative = inhibition did it give?
**A.** inactive: -4.78%

**Q.** `Cc1cc(C)cc(OP(C)(N)=O)c1` (stereo unspecified) was tested. Which activity change, negative = inhibition did it give?
**A.** inactive: 1.75%

**Q.** `O=[N+]([O-])c1cccc([N+](=O)[O-])c1` was tested. Which activity change, negative = inhibition did it give?
**A.** inactive

**Q.** How did the activity change, negative = inhibition turn out when `CC1=NCCc2c1[nH]c1ccccc21.O=[N+]([O-])c1cc([N+](=O)[O-])c(O)c([N+](=O)[O-])c1` was run?
**A.** inactive: -3.4%

**Q.** How did the activity change, negative = inhibition turn out when `COc1ccccc1OP(C)(=O)Nc1cccc(Br)c1` (stereo unspecified) was run?
**A.** inactive: 4.52%

**Q.** Which activity change, negative = inhibition does the source give for `Cc1cc(C)cc(OP(C)(=O)Nc2ccc(C)cc2C)c1` (stereo unspecified) here?
**A.** inactive: -0.699%

**Q.** `CCOC(=O)c1ccc(NP(C)(=O)Oc2cc(C)cc(C)c2)cc1` (stereo unspecified) was tested. Which activity change, negative = inhibition did it give?
**A.** inactive: 0.784%

**Q.** Which activity change, negative = inhibition does the source give for `CP(=O)(Nc1cccc(Br)c1)Oc1ccccc1` (stereo unspecified) here?
**A.** inactive: -5.63%

**Q.** With `Cc1cc(C)cc(OP(C)(=O)Nc2ccccn2)c1` (stereo unspecified) as the compound, how does the activity change, negative = inhibition read?
**A.** inactive: -0.47%

**Q.** `Cc1ccc(C)c(NP(C)(=O)Oc2ccccc2)c1` (stereo unspecified) was tested. Which activity change, negative = inhibition did it give?
**A.** inactive: -4.5%

**Q.** Which activity change, negative = inhibition does the source give for `O=[N+]([O-])c1cc([N+](=O)[O-])c(-n2nnc3ccccc32)c([N+](=O)[O-])c1` here?
**A.** inactive: 0.0898%

**Q.** With `CN(Cc1cccnc1)C(=O)COc1ccc(Cl)c(Cl)c1.O=[N+]([O-])c1cc([N+](=O)[O-])c(O)c([N+](=O)[O-])c1` as the compound, how does the activity change, negative = inhibition read?
**A.** inactive: -4.21%

**Q.** `O=[N+]([O-])c1cc([N+](=O)[O-])c(-c2cnn(-c3ccccc3)c2)c([N+](=O)[O-])c1` was tested. Which activity change, negative = inhibition did it give?
**A.** inactive: -10.7%

**Q.** With `Cc1nc2ccc3ccccc3c2s1.O=[N+]([O-])c1cc([N+](=O)[O-])c(O)c([N+](=O)[O-])c1` as the compound, how does the activity change, negative = inhibition read?
**A.** inactive: -6.26%

**Q.** `O=[N+]([O-])c1cc([N+](=O)[O-])c(Nc2nnnn2CCO)c([N+](=O)[O-])c1` was tested. Which activity change, negative = inhibition did it give?
**A.** inactive: -7.82%

**Q.** With `CC1=C2N=C(C=C3N=C(C(C)=C4[N-][C@@](C)([C@@H]5N=C1[C@](C)(CCC(=O)NC[C@@H](C)OP(=O)([O-])O[C@H]1[C@@H](O)[C@@H](n6cnc7cc(C)c(C)cc76)O[C@@H]1CO)[C@H]5CC(N)=O)[C@@](C)(CC(N)=O)[C@@H]4CCC(N)=O)[C@@](C)(CC(N)=O)[C@@H]3CCC(N)=O)C(C)(C)[C@@H]2CCC(N)=O.[C-]#N.[Co+3]` as the compound, how does the activity change, negative = inhibition read?
**A.** inactive: -24.6%

**Q.** How did the activity change, negative = inhibition turn out when `CN1CCCCC1COC(=O)C1(O)c2ccccc2CCc2ccccc21` (stereo unspecified) was run?
**A.** inactive: -5.53%

**Q.** For `COc1ccccc1OP(C)(=O)Nc1c(C)cccc1C` (stereo unspecified), which activity change, negative = inhibition is on record?
**A.** inactive: -0.685%

**Q.** How did the activity change, negative = inhibition turn out when `CP(=O)(Nc1ccc(SC(F)(F)F)cc1)Oc1ccccc1` (stereo unspecified) was run?
**A.** inactive: 5.33%

**Q.** Which activity change, negative = inhibition does the source give for `CCCOc1ccc(NP(C)(=O)Oc2ccc(Cl)cc2)cc1` (stereo unspecified) here?
**A.** inactive: 3.09%

**Q.** For `COc1ccc(OP(C)(=O)Nc2cccc(Br)c2)cc1` (stereo unspecified), which activity change, negative = inhibition is on record?
**A.** inactive: 0.784%

**Q.** How did the activity change, negative = inhibition turn out when `COc1ccc(NP(C)(=O)Oc2ccccc2OC)cc1` (stereo unspecified) was run?
**A.** inactive: -3.27%

**Q.** `CN(C)CCOC(=O)C(O)(c1ccccc1)C1CCCCC1` (stereo unspecified) was tested. Which activity change, negative = inhibition did it give?
**A.** inactive: 5.5%
